Each structure is given as a SMILES string. ± gives the expanded uncertainty stated by the source.

The conditions of this data set: 101.33 kPa, Liquid.

As a reminder, the mass density is mass per unit of volume. Take `CCCCOCCCC` [dibutyl ether]: the mass density runs as follows: (288.15 K) 772.33 ± 0.85 kg/m3; (293.15 K) 768.07 ± 0.86 kg/m3; (298.15 K) 763.76 ± 0.87 kg/m3; (303.15 K) 759.43 ± 0.88 kg/m3.
